Earlier results, collected in patent US8354374B2, “Peptides having pharmacological activity for treating disorders associated with altered cell migration, such as cancer” (Pharmaphelix S.R.L., priority 2006, dated 2013).

Test system: rat
Details: in vivo; cited from earlier work

## Kisspeptin-54
  adverse effect of long-term administration: atrophy of the gonads
